Data as given in US20070060638A1, “Methods and therapies for potentiating therapeutic activities of a cannabinoid receptor agonist via administration of a cannabinoid receptor antagonist” (priority 2005, published 2007).

Sequences of proteins named here, by UniProt entry; tags and fusion partners are left off.
UniProt P20272, whole entry: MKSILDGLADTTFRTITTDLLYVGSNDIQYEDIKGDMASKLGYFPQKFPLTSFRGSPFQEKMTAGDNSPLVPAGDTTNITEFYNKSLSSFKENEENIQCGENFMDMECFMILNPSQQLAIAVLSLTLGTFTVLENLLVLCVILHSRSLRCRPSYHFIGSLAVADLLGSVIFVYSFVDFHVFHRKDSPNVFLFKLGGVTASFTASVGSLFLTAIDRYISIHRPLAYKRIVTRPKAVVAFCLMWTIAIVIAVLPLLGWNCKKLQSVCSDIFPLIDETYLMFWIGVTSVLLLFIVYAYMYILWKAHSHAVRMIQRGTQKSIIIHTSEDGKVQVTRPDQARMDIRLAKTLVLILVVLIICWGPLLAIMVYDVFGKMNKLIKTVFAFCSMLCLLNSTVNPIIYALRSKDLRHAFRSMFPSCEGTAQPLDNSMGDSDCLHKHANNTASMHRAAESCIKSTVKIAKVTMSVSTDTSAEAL

Molecular target: CB1 receptors (Rattus norvegicus, UniProt P20272)
Settings: striatal tissue, animals treated chronically with WIN (tolerant)

CS(=O)(=O)O.Cc1c(C(=O)c2cccc3ccccc23)c2cccc3c2n1[C@H](CN1CCOCC1)CO3 [WIN, (R)-(+)-[2,3-Dihydro-5-methyl-3-(4-morpholinylmethyl)pyrrolo[1,2,3-de]-1,4-benzoxazin-6-yl]-1-naphthalenylmethanone mesylate]
CB1 receptor G-protein coupling: switch in the CB1 receptor G-protein coupling from the Gαi type to the Gαs type
